{"source": "patent US8557298B2", "about": "“Medicaments for chemotherapeutic treatment of disease” (Provectus Pharmatech, Inc., priority 1998, dated 2013)", "system": "various murine tumors", "data": [{"smiles": "CC1(C)C(/C=C/C=C/C=C/C=C2\\N(CCCCS(=O)(=O)O)c3ccc4ccccc4c3C2(C)C)=[N+](CCCCS(=O)(=O)[O-])c2ccc3ccccc3c21", "note": "[Indocyanine Green]", "values": [{"measurement": "Chemotherapeutic effect after i.t. administration", "result": "no chemotherapeutic effect was evidenced"}]}]}
